The target in this test is T1, human IGF1R (Homo sapiens, UniProt P08069).
T1 construct: expressed in transfected cells; host or cells: R+ cells (R- mouse fibroblasts transfected with human IGF1R)
As to the kind of experiment: Inhibition of insulin-like growth factor-1 receptor phosphorylation in R+ cells. Format: cell-based. The procedure:
This immunofluorescence end point cell assay measures the ability of a test compound to reduce the measured levels of IGF1R phosphorylation after IGF1 stimulation in R^+ cells. […] were derived by transfection of R^− mouse fibroblast cells with human IGF1R.
(+5% CO2) incubator for 30 minutes.
Following the compound treatment, the R^+ cells were stimulated with a final concentration of 30 nM IGF1 (Gropep 1M001) for 20 minutes at 37° C. […] Plates were incubated for 1 hour at room temperature. […] Additionally, in-house antibodies raised against phospho […] were also used at a suitable titre determined for each batch.
The plates were incubated at room temperature for one hour. […]
The Green Fluorescent phospho IGF1R -associated signal in each well was measured using an Acumen Explorer HTS Reader (TTP Labtech Ltd., Cambridge). […] The instrument is a laser-scanning fluorescence microplate cytometer, which samples the well at regular intervals and uses threshold algorithms to identify all fluorescent intensities above the solution background without the need to generate and analyse an image. These fluorescent objects can be quantified and provide a measure of the phospho IGF1R levels in cells. Fluorescence dose response data obtained with each compound was exported into a suitable software package (such as Origin) to perform curve fitting analysis. […]

Chains of the proteins cited; added tags and fusions are not shown. Residues count along the entry.
UniProt P08069, 31-1367: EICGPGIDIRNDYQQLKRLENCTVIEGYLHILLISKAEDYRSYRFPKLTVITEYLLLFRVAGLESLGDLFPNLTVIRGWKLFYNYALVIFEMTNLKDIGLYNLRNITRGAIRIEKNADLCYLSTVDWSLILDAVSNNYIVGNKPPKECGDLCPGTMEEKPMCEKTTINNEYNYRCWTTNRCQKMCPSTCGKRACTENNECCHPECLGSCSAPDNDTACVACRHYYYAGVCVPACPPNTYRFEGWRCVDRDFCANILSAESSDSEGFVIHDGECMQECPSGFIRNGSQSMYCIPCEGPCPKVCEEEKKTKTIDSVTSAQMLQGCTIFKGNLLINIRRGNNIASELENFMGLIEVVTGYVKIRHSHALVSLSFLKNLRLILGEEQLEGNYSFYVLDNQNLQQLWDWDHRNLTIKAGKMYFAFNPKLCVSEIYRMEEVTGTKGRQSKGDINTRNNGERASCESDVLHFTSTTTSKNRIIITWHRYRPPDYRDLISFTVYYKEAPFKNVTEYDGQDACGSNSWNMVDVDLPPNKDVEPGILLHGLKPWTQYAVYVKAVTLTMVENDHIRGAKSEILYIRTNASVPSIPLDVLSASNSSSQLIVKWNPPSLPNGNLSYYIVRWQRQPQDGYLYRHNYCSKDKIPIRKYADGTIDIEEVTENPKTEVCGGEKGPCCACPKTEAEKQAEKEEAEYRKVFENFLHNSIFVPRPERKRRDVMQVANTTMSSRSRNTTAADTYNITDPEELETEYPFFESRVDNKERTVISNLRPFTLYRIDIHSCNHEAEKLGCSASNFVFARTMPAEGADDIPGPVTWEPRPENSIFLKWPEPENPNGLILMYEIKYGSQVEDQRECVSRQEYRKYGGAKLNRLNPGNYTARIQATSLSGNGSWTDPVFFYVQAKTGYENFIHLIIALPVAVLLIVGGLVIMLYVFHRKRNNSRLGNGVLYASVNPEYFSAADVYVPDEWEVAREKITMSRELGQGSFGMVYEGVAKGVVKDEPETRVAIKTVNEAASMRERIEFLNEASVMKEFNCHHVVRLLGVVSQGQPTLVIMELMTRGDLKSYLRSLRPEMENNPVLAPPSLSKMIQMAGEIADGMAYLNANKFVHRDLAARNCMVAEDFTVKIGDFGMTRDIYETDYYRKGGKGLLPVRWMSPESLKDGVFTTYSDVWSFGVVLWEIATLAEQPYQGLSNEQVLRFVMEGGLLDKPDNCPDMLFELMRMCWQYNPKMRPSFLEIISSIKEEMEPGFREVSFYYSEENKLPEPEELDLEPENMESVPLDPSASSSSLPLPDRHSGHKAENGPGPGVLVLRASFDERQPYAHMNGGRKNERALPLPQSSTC

`COCCCc1cc(Nc2ccnc(NCc3cc(C)no3)n2)n[nH]1` [Example 17, N′-[5-(3-methoxypropyl)-2H-pyrazol-3-yl]-N-[(3-methylisoxazol-5-yl)methyl]pyrimidine-2,4-diamine]: the IC50 was > 10 µM.
